Screening data as filed in PubChem.
Yeast UUG start-1: alters start codon recognition fidelity in yeast; AID 602363; activity score, % at 18.7 µM; 350,000 tested, 0.13% active; S. cerevisiae UUG-firefly luciferase reporter, luminescence/redox ratio;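 active means replicate mean at a twofold rise or more, about +100% in these data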;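 further: firefly luciferase made from a UUG start codon reports start codon fidelity; reporter light over untreated wells divided by growth signal over untreated wells; some hits fall short of that in this replicate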
ABCB6 inh MLPCN: ABCB6 transporter inhibitors, primary screen, K562-ABCB6 cells, flow cytometry, MLPCN library; ATP-binding cassette sub-family B member 6 (Homo sapiens), Q9NP58; K562-ABCB6 porphyrin accumulation, 1 h; hits give low values; fluorescence ratio to DMSO, % at 10 µM; hit rate 0.19% among 360,000; AID 602162, 2011;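 active = fluorescence ratio to DMSO below 75%, the collection mean minus 3 SD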;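 also: signal is porphyrin accumulated inside mitochondria; lower ratio means ABCB6 inhibition with less porphyrin fluorescence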
Granule exo inh: LAMP-1 surface exposure blockers, TALL-104 cells – cell-based, flow cytometry, MLPCN library, primary screen; TALL-104 LAMP-1 surface exposure; cells stimulated with thapsigargin and PMA; inhibition, % at 10 µM; hit rate 0.66% among 360,000;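 active = inhibition above about 55%, limit read from the data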
PKA-R2B activ: activators of PKA-R2B holoenzyme, primary screen, biochemical, fluorescence polarization, Cy5-IP20, human | PKA-R2B holoenzyme dissociation; R2B truncated from residue 108, S112A mutant; 0% DMSO only, 100% 113 µM cGMP | activation, % at 11.4 µM | hit rate 0.079% among 340,000 | AID 504700, 2011;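 active = activation above a cutoff set at the mean over all compounds plus 3 SD, cut at about 18% in these data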;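 also: higher means more holoenzyme dissociation and a rise in polarization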
pCIP destab: p/CIP-EGFP fusion destabilizers, primary screen, fluorescence, F442A cells; AID 1984, 2009; 16 h; hit rate 0.01% among 290,000; decrease of EGFP signal, % at 10 µM;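 active = EGFP signal decrease of at least 30% at 10 µM or well 3 SD below plate mean, unless failing retest; inactive = the rest, including hits failing retest or dose response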
PKA-R1A act: activators of PKA-R1A holoenzyme, primary screen, biochemical, fluorescence polarization, Cy5-IP20, bovine R1A, mouse PKAc; PKA-R1A dissociation; scaled: DMSO 0%, 113 µM cGMP 100%; hit rate 0.083% among 340,000; cAMP-dependent protein kinase type I-alpha regulatory subunit (Bos taurus) + …; activation, % at 11.4 µM;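 active = percent activation above the mean of all tested compounds plus 3 SD, cut at about 19% in these data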;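 also: higher means more PKAc released from R1A so a rise in polarization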
Yeast UUG start-2: enhancers of UUG start codon usage in yeast, dose response, S. cerevisiae, UUG firefly luciferase, cherry-pick, set 2. shares compounds with Yeast UUG start-1. luminescence, 4 h; 100% means double the DMSO signal. activation, % at 38 µM. 540 tested, under 10 active. AID 652061, 2013;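 active = signal increase whose fitted curve reaches an absolute level of 40 at a concentration under 10 µM; inactive = activity opposite to the expected increase, or the rest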
A number is an active result; – = inactive; · = no result given. A selection: hits, their analogues and other compounds. The true share with any hit is near 0.94%.

SMILES | Yeast UUG start-1 | ABCB6 inh MLPCN | Granule exo inh | PKA-R2B activ | pCIP destab | PKA-R1A act | Yeast UUG start-2
CCC(=O)N1C[C@@H](O)COC[C@@H]2O[C@@H](CC(=O)NCC3CCCCC3)CC[C@H]21 | – | · | · | · | · | · | ·
CCC(=O)N1C[C@@H](O)COC[C@H]2O[C@@H](CC(=O)NCC3CCCCC3)CC[C@@H]21 | 112 | · | · | · | · | · | –
CN(C)CCCN1C(=O)[C@@]2(Cc3ccccc31)c1ccccc1C(=O)N(Cc1ccccc1Cl)[C@H]2c1ccc(CO)cc1 | 202 | · | · | · | · | · | –
COc1ccccc1CN1C(=O)c2ccccc2[C@@]2(Cc3ccccc3N(CCN3CCOCC3)C2=O)[C@@H]1c1ccc(CO)cc1 | 130 | · | · | · | · | · | –
O=C1c2ccccc2[C@@]2(Cc3ccccc3N(CCN3CCOCC3)C2=O)[C@H](c2ccc(CO)cc2)N1Cc1ccccc1Cl | – | · | · | · | · | · | ·
C[C@@H]1CN([C@@H](C)CO)C(=O)c2cc(-c3ccc(C#N)cc3)cnc2O[C@@H]1CN(C)Cc1ccccn1 | – | · | · | · | · | · | ·
CCOc1cc(OCC)cc(C(=O)NC(=S)Nc2cccc(C(F)(F)F)c2)c1 | · | – | – | – | – | – | ·
O=C(NC(=S)Nc1cccc(C(F)(F)F)c1)c1ccc2nonc2c1 | 139 | – | – | · | – | · | –
Cn1nc(CC(=O)N2CCN(c3ccccc3)CC2)c2ccccc2c1=O | – | – | – | – | – | – | –
CC1CCN(C(=O)Cc2nn(C)c(=O)c3ccccc23)CC1 | – | – | – | – | – | – | –
CN1C(=O)c2cc(NC(=O)c3cccc(F)c3)ccc2OC[C@@H]2O[C@@H](CC(=O)NCc3ccccc3)CC[C@H]21 | – | · | · | · | · | · | ·
COc1ccccc1C1(CCN=Cc2ccc(N(C)C)cc2)CCOC(C)(C)C1 (stereo not drawn) | – | – | – | – | – | – | ·
CN(C)c1ccc(C=NCCC2(O)CCOC(C)(C)C2)cc1 (stereo not drawn) | 118 | – | – | – | – | – | –
CCCNC(=O)C[C@H]1CC[C@H]2[C@@H](COc3ccc(NC(=O)c4ccccc4)cc3C(=O)N2C)O1 | – | · | · | · | · | · | ·
O=C(C1CCC1)N1C[C@@H]2[C@H](c3ccccc31)[C@H](CO)N2C(=O)Cc1ccccn1 | 111 | · | · | · | · | · | –
O=C(C1CCC1)N1C[C@H]2[C@@H](c3ccccc31)[C@H](CO)N2C(=O)Cc1ccccn1 | 130 | · | · | · | · | · | –
COc1ccccc1CN1[C@@H]2CN(C(=O)C3CCC3)c3ccccc3[C@@H]2[C@@H]1CO | 128 | · | · | · | · | · | –
O=C(C1CCCC1)N1C[C@H]2[C@@H](c3ccccc31)[C@H](CO)N2C(=O)Cc1ccccn1 | – | · | · | · | · | · | ·
CC(C)NC(=O)N[C@@H]1CC[C@@H](CC(=O)NCc2ccc(Oc3ccccc3)cc2)O[C@H]1CO | – | · | · | · | · | · | ·
Cc1ccc(Oc2nc3ccccn3c(=O)c2/C=C(\C#N)C(=O)Nc2c(C)n(C)n(-c3ccccc3)c2=O)c(C)c1 | – | – | – | – | – | – | ·
COc1ccccc1Oc1nc2ccccn2c(=O)c1/C=C(\C#N)C(=O)Nc1c(C)n(C)n(-c2ccccc2)c1=O | 112 | – | – | – | – | – | –
C[C@@H]1CN([C@H](C)CO)S(=O)(=O)c2ccc(Br)cc2O[C@H]1CN(C)Cc1ccccc1 | – | · | · | · | · | · | ·
CC(C)N(CC#CC(O)(c1ccccc1)c1ccccc1)C(C)C | · | – | – | – | – | – | –
Cc1ccccc1S(=O)(=O)N1C[C@@H](O)COC[C@@H]2O[C@H](CC(=O)N3CCOCC3)CC[C@H]21 | – | · | · | · | · | · | ·
CC(O)(C#CCN1CCCCCC1)c1ccccc1 (stereo not drawn) | · | – | – | · | – | · | –
CC(C)(C#CC(O)(c1ccccc1)c1ccccc1)N1CCCCC1 | – | – | – | – | – | – | ·
